According to patent US20260201345A1:

Target: QF2 transcriptional activator (truncated QF lacking the middle domain, residues 206-650) (Neurospora crassa) (UniProt P11638)
Experiment: cell-based or functional assay

repression of QF2-mediated GFP expression from P5xQUASf (flow cytometry), QS expressed from PADH1: 74%
repression of QF2-mediated GFP expression from P5xQUASf (flow cytometry), QS expressed from PHHF2: 89%
repression of QF2-mediated GFP expression from P5xQUASf (flow cytometry), QS expressed from PTEF1: 98%
Substance: QS transcriptional repressor (from UniProt P11637 1-918)
